# Target: T1, hMAO-A (Homo sapiens, UniProt P21397)
# Chains of the proteins cited; added tags and fusions are not shown.
# UniProt P21397, whole entry: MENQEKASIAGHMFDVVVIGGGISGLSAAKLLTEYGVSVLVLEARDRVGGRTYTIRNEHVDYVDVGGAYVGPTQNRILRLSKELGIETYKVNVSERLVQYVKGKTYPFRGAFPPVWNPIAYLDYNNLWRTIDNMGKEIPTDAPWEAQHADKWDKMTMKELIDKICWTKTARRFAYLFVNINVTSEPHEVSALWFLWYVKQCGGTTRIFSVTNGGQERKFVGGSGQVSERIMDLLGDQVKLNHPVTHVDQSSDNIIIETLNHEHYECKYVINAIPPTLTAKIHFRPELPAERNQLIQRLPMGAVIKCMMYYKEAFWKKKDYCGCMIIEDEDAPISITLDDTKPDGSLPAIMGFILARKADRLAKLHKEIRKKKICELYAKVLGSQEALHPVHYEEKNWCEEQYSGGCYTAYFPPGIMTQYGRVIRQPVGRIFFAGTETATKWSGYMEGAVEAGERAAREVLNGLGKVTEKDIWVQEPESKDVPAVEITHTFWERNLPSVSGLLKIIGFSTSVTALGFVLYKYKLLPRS
# T1 construct: purchased Sigma-Aldrich (St. Louis, MO, USA)
# Assay: hMAO-A inhibition, kynuramine substrate, HPLC-MS
# Format: biochemical
# Settings: residual enzyme activity, compound at 1 µM
# Protocol: To confirm the multipotent biological profile of target compounds 1 − 15, 20 − 28, the inhibitory activity towards both isoforms of hMAO was determined in vitro. Gained results are listed in Table 2 as the residual activity of the enzyme after inhibition by the studied compound at two concentrations (10 and 1 μM).
# The hMAO-A and hMAO-B enzymes were purchased from Sigma-Aldrich (St. Louis, MO, USA). […]. The mixture was pre-incubated at 37 °C for 5 min and subsequently substrate kynuramine was added to the final concentration of 60 µM in the case of hMAO-A and 30 µM in the case of hMAO-B. The final volume of reaction mixture was 0.1 mL. The whole reaction mixture was incubated at 37 °C for 30 min. The reaction was stopped by the addition of 200 µL acetonitrile/methanol mixture (ratio 1:1) and cooling down to 0 °C. The sample was then centrifuged (16.500× g) for 10 min. The deamination product of kynuramine formed during the enzymatic reaction 4-hydroxyquinoline (4-HQ) was determined by HPLC–MS on a 2.1 mm × 50 mm, 1.8 µm Zorbax RRHD Eclipse plus C18 column (Agilent) by using a 6470 Series Triple Quadrupole mass spectrometer (Agilent) (electrospray ionisation – positive ion mode). Three MRM transitions were followed for kynuramine (165.1 = > 30.2, 165.1 = > 118.0, 165.1 = > 136.0) and 4-HQ (146.1 = > 51.1, 146.1 = > 77.0, 146.1 = > 91.0). […]
compound,measurement,value
"C#CCN(C)CCCOc1ccc(Cl)cc1Cl [Clorgyline, reference compound]",% of MAO-A activity (1 µM),43%

# — paper PMC9518283 (Journal of Enzyme Inhibition and Medicinal Chemistry, 2022)
